{"source": "PubChem BioAssay AID1259422", "about": "(The Scripps Research Institute Molecular Screening Center, 2018)", "note": "Only a part is listed here, and it is no random draw. Some tests of the compounds listed are not included; inactive here does not mean inactive elsewhere. Active and inactive are the calls of the source. Cut-off read from the data, not from the text of the source: active = inhibition above about 32%; inactive = the rest.", "data": [{"experiment": "TEAD-YAP interaction inhibition, primary screen, TEAD-YAP interaction inhibitor project, luminescence, HEK-TIYL cells (AID 1259422);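 note: 0% = median of test compound wells and 100% = reference inhibitor wells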", "conditions": "TEAD-Gal4/YAP UAS-luciferase luminescence, at 9.12 µM, stronger effect = higher value", "values": [{"smiles": "CC(CCN(C)C)OC(=O)C(O)(c1ccccc1)c1ccccc1", "note": "(stereo not given)", "inhibition": "inactive: -1.69%"}, {"smiles": "CN(C)C1(CNC(=O)c2n[nH]c3ccccc23)CCCCC1", "inhibition": "inactive: 4.65%"}, {"smiles": "CN(C)C1CCCC1OC(=O)C(O)(c1ccccc1)c1ccccc1", "note": "(stereo not given)", "inhibition": "inactive: 0.26%"}, {"smiles": "CN(C)c1ccc(C(=O)NCC2(N(C)C)CCCCC2)cc1", "inhibition": "inactive: 0.46%"}, {"smiles": "COc1ccc(C(=O)NCC2(N(C)C)CCCCC2)cc1", "inhibition": "inactive: -6.37%"}, {"smiles": "CC(C)N(CCOC(=O)C(O)(c1ccccc1)c1ccccc1)C(C)C", "inhibition": "inactive: -2.27%"}, {"smiles": "O=C(NCC1(N2CCOCC2)CCCCC1)c1cnc(Cl)c(Cl)c1", "inhibition": "inactive: 0.75%"}, {"smiles": "CN1CCCC(COC(=O)C(O)(c2ccccc2)c2ccccc2)C1", "note": "(stereo not given)", "inhibition": "inactive: -13.1%"}, {"smiles": "COc1cc(SC)ccc1C(=O)NCC1(N(C)C)CCCCC1", "inhibition": "inactive: -9.03%"}, {"smiles": "CN(C)C1(CNC(=O)c2c(F)cccc2F)CCCCC1", "inhibition": "inactive: -0.9%"}, {"smiles": "CC(C)Oc1ccc(C(=O)NCC2(N(C)C)CCCCC2)cc1", "inhibition": "inactive: 0.54%"}, {"smiles": "CN(C)c1cccc(C(=O)NCC2(N(C)C)CCCCC2)c1", "inhibition": "inactive: 1.91%"}, {"smiles": "CN1C2CCC1CC(OC(=O)C(O)(c1ccccc1)c1ccccc1)C2", "note": "(stereo not given)", "inhibition": "inactive: -10.1%"}, {"smiles": "COc1cccc(C(=O)NCC2(N3CCCCC3)CCCCC2)c1", "inhibition": "inactive: 1.65%"}, {"smiles": "COc1ccc(Cl)cc1C(=O)NCC1(N(C)C)CCCCC1", "inhibition": "inactive: -7.92%"}]}]}
